We go through one molecule from ChEMBL document CHEMBL5608193, “Discovery of bivalent small molecule degraders of cyclin-dependent kinase 7 (CDK7)” (Eur J Med Chem, 2024).

The chains behind the UniProt entries cited, without tags or fusion partners. Where a name states a change or a piece, a line headed by the entry shows the natural chain unless it says otherwise.
UniProt P51946: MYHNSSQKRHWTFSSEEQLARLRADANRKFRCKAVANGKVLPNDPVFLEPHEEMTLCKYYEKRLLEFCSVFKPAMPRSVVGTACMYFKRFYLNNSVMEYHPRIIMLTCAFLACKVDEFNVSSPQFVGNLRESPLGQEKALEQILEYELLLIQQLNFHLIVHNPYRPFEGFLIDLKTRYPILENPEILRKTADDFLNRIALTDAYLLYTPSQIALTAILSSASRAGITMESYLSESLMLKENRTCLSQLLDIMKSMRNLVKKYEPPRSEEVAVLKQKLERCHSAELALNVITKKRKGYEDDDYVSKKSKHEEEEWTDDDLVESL
UniProt P50613: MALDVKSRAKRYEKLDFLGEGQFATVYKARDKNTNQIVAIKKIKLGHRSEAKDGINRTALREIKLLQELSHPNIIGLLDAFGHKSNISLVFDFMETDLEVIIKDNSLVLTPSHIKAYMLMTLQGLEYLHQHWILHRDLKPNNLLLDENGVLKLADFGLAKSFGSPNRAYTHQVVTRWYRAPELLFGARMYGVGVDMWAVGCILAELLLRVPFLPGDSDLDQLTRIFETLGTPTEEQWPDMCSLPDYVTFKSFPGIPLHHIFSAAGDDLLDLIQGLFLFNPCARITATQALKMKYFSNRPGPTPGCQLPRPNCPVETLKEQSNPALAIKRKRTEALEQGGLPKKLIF
UniProt P51948: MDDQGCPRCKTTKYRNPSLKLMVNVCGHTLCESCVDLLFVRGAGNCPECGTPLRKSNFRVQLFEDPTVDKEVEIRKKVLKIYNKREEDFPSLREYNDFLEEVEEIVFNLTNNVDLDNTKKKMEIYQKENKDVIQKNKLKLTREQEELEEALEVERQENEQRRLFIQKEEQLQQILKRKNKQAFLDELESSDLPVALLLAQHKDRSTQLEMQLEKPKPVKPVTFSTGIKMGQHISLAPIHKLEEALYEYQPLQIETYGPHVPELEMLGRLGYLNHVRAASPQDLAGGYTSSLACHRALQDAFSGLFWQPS

The target in this assay is CDK7/Cyclin H/MNAT1 (Homo sapiens) (UniProt P51946+P50613+P51948). Kind of assay: Inhibition of recombinant GST-tagged CDK7/CycH/MAT1 (unknown origin) extracted from baculo-virus infected Sf9 insect cells assessed as kinact/Ki ratio using ATP containing 32P measured after 15 mins by Beckman liquid scintillation counter analysis. The assay is classed as cell-based.

Take `C=CC(=O)Nc1ccc(C(=O)Nc2n[nH]c3c2CN(C(=O)N[C@@H](CN(C)C)c2ccccc2)C3(C)C)cc1`: the Ratio was 103 /microsec/nM.
